For the assay, the target named is Pim-1 (Homo sapiens (Human), UniProt P11309). Put plainly: Pim enzyme assay (HTRF, phosphorylation of biotinylated-BAD (S112) peptide), Pim-1. It counts as biochemical. Conditions: full length recombinant Pim-1, biotinylated-BAD (S112) peptide, 96-well, read-out: Pim-1 IC50 IP. An excerpt:
Full-length human cDNAs encoding Pim-1 (MGC ID 3913552) or Pim-2 (IMAGE ID 5092935) were purchased from Invitrogen, Carlsbad, Calif. These cDNAs were used as templates in PCR reactions to produce full-length DNA clones of the PIMs. Oligonucleotide PCR primers for Pim-1 were 5′-[…]-3′ and 5′-[…]-3′. Oligonucleotide PCR primers for Pim-2 were 5′-[…]-3′ and 5′-[…]-3′. PCR products were digested with BclI and EcoRI for Pim-1 and BamHI and EcoRI for Pim-2 and ligated into a modified baculovirus transfer vector (pFastBac 1) cleaved with BamHI and EcoRI. […]
The frozen cell pellets were thawed by stirring in chilled lysis buffer (0.05 M HEPES, pH 8.0, 0.25 M NaCl, 0.01 M 2-mercaptoethanol, 10% (w/v) glycerol, 0.5% (v/v) protease inhibitor cocktail (Sigma P-8340) at a ratio of 1 L/200 g cells until homogeneous. The thawed suspension was applied to a microfluidizer at 10,000 PSI to disrupt the cells and the whole lysates were clarified by centrifugation at 50,000×g for 90 min, 4° C. Imidazole was added to the clarified lysate to a final concentration of 2.5 mM and the lysate was mixed with 10 mL of Talon resin (Clontech) and the slurry rocked gently overnight at 4° C. […] Fractions were analyzed by SDS-PAGE and those containing the protein of interest were pooled and concentrated. […]

Amino acid sequences for entries named in this document (tags omitted).
UniProt P11309, whole entry: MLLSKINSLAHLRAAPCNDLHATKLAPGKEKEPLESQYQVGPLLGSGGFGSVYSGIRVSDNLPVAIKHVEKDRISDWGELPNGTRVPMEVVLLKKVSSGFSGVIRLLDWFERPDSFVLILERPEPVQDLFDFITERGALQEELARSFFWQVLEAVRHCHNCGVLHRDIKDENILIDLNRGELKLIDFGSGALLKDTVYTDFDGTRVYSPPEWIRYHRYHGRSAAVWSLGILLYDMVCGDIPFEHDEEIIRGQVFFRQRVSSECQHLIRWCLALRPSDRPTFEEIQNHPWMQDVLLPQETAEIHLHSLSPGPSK

SMILES strings stand for the structures.

Consider `N[C@@H]1CN(c2ccncc2Nc2ncc3ccc(-c4c(F)cccc4F)nn23)CC[C@H]1F` (single isomer, unassigned) [Example 44, N-(4-(trans-3-amino-4-fluoropiperidin-1-yl)pyridin-3-yl)-2-(2,6-difluorophenyl)imidazo[1,5-b]pyridazin-7-amine], for which the IC50 worked out at 7.4 nM.

For the compound `N[C@@H]1C=C(c2ccncc2Nc2ncc3ccc(-c4c(F)cccc4F)nn23)CC[C@H]1F` (racemic) [Example 93, (2,2,2-trifluoroacetate)], the IC50 is 2.4 nM.

By IC50 is commonly meant the concentration that inhibits the measured activity by half.
